The text below walks through data of patent US12173007B2, “Imidazopyridazine IL-17 inhibitor compounds” (Janssen Pharmaceutica NV, priority 2021, dated 2024).

Amino acid sequences for entries named in this document (tags omitted). Chains listed by the source or under a name are the forms on record and can include a tag or linker. Residues count along the entry.
UniProt Q16552, 24-154 with tags or gaps K93Q: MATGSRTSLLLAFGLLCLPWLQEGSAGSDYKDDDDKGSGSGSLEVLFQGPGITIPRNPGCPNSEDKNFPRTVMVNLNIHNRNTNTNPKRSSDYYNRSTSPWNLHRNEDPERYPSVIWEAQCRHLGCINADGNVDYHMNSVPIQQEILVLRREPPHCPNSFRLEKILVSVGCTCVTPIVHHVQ

Assay [1] concerns the target T1, IL-17A(FLAG-Tagged): IL-17RA(His-Tagged) binding (Homo sapiens, UniProt Q16552, K93Q). The assay is described as follows: IL-17A(FLAG-tagged):IL-17RA(His-tagged) binding disruption Eu-HTRF assay, Protocol 1. The following applies: read-out: HTRF IC50 Protocol 1; FLAG-IL-17A 2.5 nM; average if tested more than once. From the text:
(§1) IL-17A(FLAG-Tagged): IL-17RA(His-Tagged) Binding Disruption Eu-HTRF Assay
(§2) An antibody directed against the FLAG tag of IL-17A (SEQ ID NO: 1) is labeled with the HTRF donor chromophore (Europium-cryptate). IL-17A is present as a dimer that is “locked into” this quaternary structure due to the formation of loop-spanning […] disulfide bridges. The construct of IL-17RA used in the assay excludes the […] portion of the receptor and is fused to a C-terminal 10×His tag (SEQ ID NO:2). An antibody directed against the His tag of the IL-17RA chimera is labeled with the HTRF acceptor chromophore (“D2”). The fluorescence-resonance energy transfer (FRET) depends on the vicinity of the donor chromophore to the acceptor, and interruption of the binding between the IL-17A and IL-17RA causes the reduction/loss of FRET. Therefore, this assay allows to evaluate the compound effect on the binding IL-17A and IL-17RA by monitoring the fluorescence intensity of donor vs acceptor. The assay was run using either Protocol 1 or Protocol 2 as described below.
Protocol 1. 40 nl of 2-fold serial diluted compound solution for total 22 dilution points is added into each well of a 1536-well, white, low-volume, non-binding plate (Greiner #782904), then 2 μl of FLAG tagged IL-17A at 2×final concentration (2.5 nM) in solution of PBS+0.01% Triton-X100 is added to each well. The assay plate is briefly centrifuged then incubated for 1 h at rt. A mixed solution is prepared containing 2×5 nM 10HIS×IL-17RA, 2×2.5 nM Eu-anti-FLAG (CISBIO), 2×5 nM D2-anti-HIS (CISBIO) in PBS+0.01% Triton-X100+200 mM Potassium Fluoride (Sigma 60238) and 2 μl of mix is added to each well of the assay plate. The plate is briefly centrifuged then incubated for 2 h at rt. The HTRF intensities at the wavelength of donor (620 nm) and acceptor (665 nm) are measured using BMG Pherastar. The ratio between intensities at two wavelengths is calculated and plotted against the compound concentration and the data is fitted to a one-site competition model to yield IC50 of the compound.
For orientation: Time-resolved FRET reads energy transfer from a long-lived donor to a nearby acceptor.

Assay [2] deals with IL-17A-induced G-CSF production in human normal keratinocyte (NHK). The assay is described as follows: NHK assay: IL-17A-induced G-CSF production in normal human keratinocytes. The note with it: read-out: NHK IC50; IL-17A 5 ng/mL, 24 h, G-CSF by HTRF; average if tested more than once. The procedure:
IL-17A acts directly on keratinocytes through binding to dimeric receptor IL-17RA/RC and drives the production of a number of inflammatory mediators known to be elevated in psoriasis lesional tissue. IL-17A small molecule inhibitors that block the IL-17A to interact with IL-17R would inhibit the IL-17A signaling in its targeted cells such as keratinocytes. The compound functional activity is evaluated for its impact on IL-17A-induced G-CSF production in human normal keratinocyte (NHK).
Adult normal human keratinocytes are cultured in keratinocyte growth medium (Lonza) in a flask till reaching ˜90% confluence, then cells are transferred to a 384-well plate at density of 3000-4000 cell/well. Recombinant human IL-17A (Gibco PHC9174) is pre-incubated with titrated compound or DMSO for 1 h at rt then added to the cell culture plate. The final concentration of IL-17A is 5 ng/mL and DMSO is 0.2%, in the culture containing 5% FBS. Cells are cultured/treated for 24 h at 37° C. Supernatants are collected and G-CSF production is measured through HTRF technology using Human G-CSF Kit (CisBio). G-CSF concentration was extrapolated from the standard curve and IC50 is determined using GraphPad Prism. Cell viability is also evaluated using CellTiter-Glo kit (Promega) and effect of compound on cell viability is compared to DMSO control.

The target in assay [3] is T1, IL-17A(FLAG-Tagged): IL-17RA(His-Tagged) binding. Nature of the assay: IL-17A(FLAG-tagged):IL-17RA(His-tagged) binding disruption Eu-HTRF assay, Protocol 2. The note with it: read-out: HTRF IC50 Protocol 2; FLAG-IL-17A 1 nM; average if tested more than once.
From the text: as §1, §2
Protocol 2. […] The HTRF intensities at the wavelength of donor (615 nm) and acceptor (665 nm) are measured using BMG Pherastar. The ratio between intensities at two wavelengths is calculated and plotted against the compound concentration and the data is fitted to a one-site competition model to yield IC50 of the compound.

On to `CC(C)n1nccc1C(=O)N[C@H](c1cn2ncc(CN3CC4C(CNC3=O)C4(F)F)cc2n1)C1CCC(F)(F)CC1` (some centres unmarked), for which the figures for the IC50 in assay [1] and in assay [2] were over 100 nM and under 50 nM, respectively.
For `O=C(N[C@H](c1cn2ncc(CN3CC4C(CNC3=O)C4(F)F)cc2n1)C1CCC(F)(F)CC1)c1nonc1C1CC1` (single isomer, unassigned) [Example 3], in that order: under 50 nM and under 50 nM.
As for `O=C(N[C@H](c1cn2ncc(CN3CC4C(CNC3=O)C4(F)F)cc2n1)C1CCC(F)(F)CC1)c1nonc1C1CC1` (single isomer, unassigned) [Example 4], the IC50 – broadly, the concentration needed to halve the response being measured – in assay [1] is 50 to 100 nM; in assay [2], over 100 nM.
Taken in the same sequence, the figures for `Cc1nonc1C(=O)N[C@H](c1cn2ncc(CN3CC4C(CNC3=O)C4(F)F)cc2n1)C1CCC(F)(F)CC1` (single isomer, unassigned) [Example 100] were over 100 nM and over 100 nM.
Taken in the same sequence, the figures for `Cc1nonc1C(=O)N[C@H](c1cn2ncc(CN3CC4C(CNC3=O)C4(F)F)cc2n1)C1CCC(F)(F)CC1` (single isomer, unassigned) [Example 101] were under 50 nM and under 50 nM.
On to `COC[C@H](c1cnn2cc([C@@H](NC(=O)c3nonc3C)C3CCC(F)(F)CC3)nc2c1)N1CC2C(CNC1=O)C2(F)F` (single isomer, unassigned) [Example 104], for which the 50% inhibitory concentration (IC50) in assay [3] and in assay [2] was under 50 nM in each case.
For the compound `COC[C@H](c1cnn2cc([C@@H](NC(=O)c3nonc3C)C3CCC(F)(F)CC3)nc2c1)N1CC2C(CNC1=O)C2(F)F` (single isomer, unassigned) [Example 105], the concentration for half-maximal inhibition (IC50) in assay [3] and in assay [2] was over 100 nM each time.
